Data from patent US20050014682A1, “Cell-free assay for insulin signaling” (priority 2003, published 2005).

Tested on: Akt
Assay: Cell-free in vitro assay (3T3-L1 adipocyte PM/CYT/LDM fractions), Akt phosphorylation by phospho-Akt immunoblot
Type: biochemical

## sodium orthovanadate
  control (basal) phospho-Akt signal in reactions containing PM(−ins): also elevated
  signal for both Akt phosphorylation sites in reactions containing PM(+ins): appeared to elevate the signal
